scFv variants of Ab-14 (heavy chain) against a SARS-CoV-2 spike peptide

The target is the same throughout: PDVDLGDISGINAS, from the HR2 region of SARS-CoV-2 spike.

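The parent was found by panning a naive human phage display library on the peptide. Library AAYL49 holds single substitutions and randomly drawn double and triple substitutions in the CDRs. The scFvs were displayed on barcoded MATa yeast, the peptide on MATalpha yeast. Binding brings cells together so that they mate, and sequencing counts the barcode pairs among the diploids. Read counts were normalised to the haploid input and turned into Kd by a linear fit to BCL2-family pairs of known affinity, for each replicate. Each pool was mated in three replicate cultures.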

Ab-14 is the parent antibody, in scFv form: VH, then a 15-residue (Gly4Ser)3 linker, then VL. The light chain is unchanged in all variants.
VH: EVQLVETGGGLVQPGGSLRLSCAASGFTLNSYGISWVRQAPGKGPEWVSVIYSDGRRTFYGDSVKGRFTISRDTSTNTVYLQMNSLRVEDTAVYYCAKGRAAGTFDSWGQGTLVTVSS
VL: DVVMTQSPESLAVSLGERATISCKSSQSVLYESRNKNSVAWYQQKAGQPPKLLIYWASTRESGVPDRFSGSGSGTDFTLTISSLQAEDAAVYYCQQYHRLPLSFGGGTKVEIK

Substitutions are numbered in sequence along the VH above, starting at 1 (not Kabat).
Every variant below is changed at T28 of the VH (sequential numbering).
Scale: log10 of Kd in nM, estimated from mating counts; low values are strong binders.
Averages over replicates are reported, and they cover detected replicates only.
Where no diploid with the target was found in any replicate, the entry reads "nd": below detection, most likely a poor binder, though not proof of it.
Empty control strains, which show no peptide, gave a signal in 15% of pairings with library AAYL49; the median was 4.06 and 95% of these signals were weaker than 2.83. No background was subtracted. The control count says in how many pairings with the empty strains this scFv gave a signal.

The variant T28Q+G33Y gave 3.62 (1 of 3 replicates; controls 2 of 9). For T28D+G33S+S53T, the assay gave nd (0 of 3 replicates; controls 6 of 9). The variant T28M+R56W+G99P showed nd (0 of 3 replicates; controls 0 of 9). For T28H+S35E+A101Y, the assay gave nd (0 of 3 replicates; controls 1 of 9). The variant T28A+T58S+S107C showed nd (0 of 3 replicates; controls 0 of 9). With T28H+S107G the result was 3.01 (3 of 3 replicates; controls 1 of 9). The variant T28A+Y32N+V64N gave nd (0 of 3 replicates; controls 2 of 9). With T28W+D54E+S107W the result was nd (0 of 3 replicates; controls 0 of 9).

The variant G26L+T28I+R57M gave nd (0 of 3 replicates; controls 0 of 9). For F27N+T28I+G33R, the assay gave nd (0 of 3 replicates; controls 3 of 9). The variant T28P+L29P+N30L gave 5.60 (2 of 3 replicates; controls 4 of 9). The variant T28D+G103Q+F105S gave 0.37 (3 of 3 replicates; controls 1 of 9). With G26S+T28W+G33V the result was 3.18 (1 of 3 replicates; controls 0 of 9). With T28Q+D62M+A101Q the result was 2.51 (3 of 3 replicates; controls 1 of 9). The variant G26C+T28Y+T58E gave nd (0 of 3 replicates; controls 1 of 9). With T28E+S63K+A101C the result was 2.24 (3 of 3 replicates; controls 1 of 9).

The variant T28H+F59A gave 0.20 (3 of 3 replicates; controls 1 of 9). The variant T28Y+S31P+R57E gave 4.62 (1 of 3 replicates; controls 0 of 9). With T28I+G99H+D106Q the result was nd (0 of 3 replicates; controls 1 of 9). With T28I+G55T+T104I the result was 3.42 (1 of 3 replicates; controls 1 of 9). For T28D+N30T+I51W, the assay gave nd (0 of 3 replicates; controls 0 of 9). The variant T28K+R56Y+G61T showed 1.10 (3 of 3 replicates; controls 1 of 9). The variant G26W+T28E+S31R showed 3.27 (3 of 3 replicates; controls 3 of 9). With F27V+T28Y+S31D the result was 4.06 (2 of 3 replicates; controls 2 of 9).

With T28A+S53P+D62A the result was 2.38 (3 of 3 replicates; controls 1 of 9). For G26Q+F27Y+T28E, the assay gave 4.41 (2 of 3 replicates; controls 0 of 9). With T28A+G33E+I34D the result was 3.66 (2 of 3 replicates; controls 2 of 9). The variant T28I+K65T gave 2.11 (3 of 3 replicates; controls 1 of 9). With T28P+V50R+D106Q the result was nd (0 of 3 replicates; controls 0 of 9). For F27R+T28S+D106F, the assay gave nd (0 of 3 replicates; controls 0 of 9). The variant T28L+K65T+R100I gave 3.33 (2 of 3 replicates; controls 2 of 9). With T28Q+V50I+R57N the result was nd (0 of 3 replicates; controls 0 of 9).

The variant T28N+G33D+S63R gave nd (0 of 3 replicates; controls 1 of 9). With T28G+V64A the result was 1.93 (3 of 3 replicates; controls 1 of 9). For T28R+G33M+R100H, the assay gave nd (0 of 3 replicates; controls 2 of 9). With T28D+R56H+R57F the result was 3.06 (1 of 3 replicates; controls 0 of 9). For T28Y+I34R+G103N, the assay gave nd (0 of 3 replicates; controls 0 of 9). The variant T28Y+S53P+S107W gave 2.48 (1 of 3 replicates; controls 0 of 9). The variant G26H+T28D+I51P gave 3.55 (1 of 3 replicates; controls 2 of 9). With T28R+G55D+A101W the result was nd (0 of 3 replicates; controls 0 of 9).

With G26P+T28A+L29W the result was 3.95 (1 of 3 replicates; controls 2 of 9). The variant T28L+S35Y+D54P gave nd (0 of 3 replicates; controls 1 of 9). The variant T28L+I51T+A102Q showed nd (0 of 3 replicates; controls 0 of 9). For T28I+V64Y+R100V, the assay gave 2.76 (3 of 3 replicates; controls 0 of 9). For F27I+T28E+Y32T, the assay gave 4.10 (2 of 3 replicates; controls 1 of 9).

Top 4 of the variants detected in all replicates, tightest first:

changes,"log10 Kd (nM), mean",replicates with signal,control signals
T28H+F59A,0.20,3/3,1/9
T28D+G103Q+F105S,0.37,3/3,1/9
T28K+R56Y+G61T,1.10,3/3,1/9
T28G+V64A,1.93,3/3,1/9

For reference, the parent read 0.65 as the reference entry and 4.11 (one replicate of three) as a member of this library.

Source: Engelhart et al. 2022 (doi:10.1038/s41597-022-01779-4), MIT Lincoln Laboratory and A-Alpha Bio; data file from the FLAb repository.